{"sequences": {"note": "Protein sequences, listed by entry. Tags and fused reporters are not part of them. Residues count along the entry.", "UniProt P37231, 29-505": "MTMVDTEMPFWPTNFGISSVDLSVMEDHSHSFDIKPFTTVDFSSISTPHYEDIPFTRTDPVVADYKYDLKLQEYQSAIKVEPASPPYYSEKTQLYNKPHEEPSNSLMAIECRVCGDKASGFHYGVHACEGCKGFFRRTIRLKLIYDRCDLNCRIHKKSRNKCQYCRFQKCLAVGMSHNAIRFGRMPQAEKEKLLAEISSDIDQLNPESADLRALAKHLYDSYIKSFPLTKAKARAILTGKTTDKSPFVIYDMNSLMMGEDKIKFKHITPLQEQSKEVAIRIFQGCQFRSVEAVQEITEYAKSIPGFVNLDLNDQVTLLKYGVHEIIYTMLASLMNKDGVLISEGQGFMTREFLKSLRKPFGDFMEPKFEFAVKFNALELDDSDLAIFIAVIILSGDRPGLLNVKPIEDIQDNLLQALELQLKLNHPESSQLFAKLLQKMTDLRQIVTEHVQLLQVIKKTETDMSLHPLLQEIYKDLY"}, "source": "paper PMC5651862", "about": "(Scientific Reports, 2017)", "biological_target": "full-length human PPARγ (Homo sapiens, UniProt P37231)", "data": [{"smiles": "C=CCc1ccc(O)c(-c2cc(CC=C)ccc2O)c1", "note": "[magnolol, reference compound]", "values": [{"measurement": "Emax PPARγ-dependent luciferase transactivation", "setting": "HEK293, 18 h, Emax values ± SD, results as fold induction vs DMSO", "value": "4.63 ± 0.55"}, {"measurement": "efficacy compared to pioglitazone", "setting": "HEK293, Emax relative to full agonist pioglitazone", "value": "around 62%"}]}]}
